Biological target: T1, kinase-inducible domain interacting domain (KIX) of CREB binding protein (CBP), residues 586-672 (UniProt P45481, in part)
T1 construct: the limits 586-672 are those commonly used for the KIX domain of mouse CBP (surmise); The paragraph on its purification speaks of 'p53' from the elution onward, so the cleavage of the His tag from KIX is not sure; also called CBP/KIX; KIX (586-672); source: E. coli BL21 (DE3), purified (Ni-NTA, Superdex 75); not shown: His7, N-terminal, cleaved
Assay: ITC; p53 constructs in the syringe (50-500 uM), KIX in the cell (5-50 uM); 25 °C; 50 mM Tris, 50 mM NaCl, pH 7.0; single-site model; triplicate
Settings: both partners purified

The chains behind the UniProt entries cited, without tags or fusion partners. Residues count along the entry.
UniProt P45481, 586-672: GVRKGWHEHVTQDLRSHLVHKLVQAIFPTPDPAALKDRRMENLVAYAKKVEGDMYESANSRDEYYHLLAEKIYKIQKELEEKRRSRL

Kd: 11 µM | dH: 2.61 kcal/mol
B1: p53 transactivation domain, wild type (p53TAD) (domain or fragment)
chain: not shown
notes: The limits […] are printed for the mutants; also called p53TAD WT; p53TAD wild type; source: E. coli BL21 (DE3), purified (Ni-NTA, thrombin cleavage, Ni-NTA, Superdex 75); not shown: His7, N-terminal, cleaved
